The target of this assay is purified DPPIV (i.e., CD26) (Homo sapiens, UniProt P27487). Kind of assay: Enzymatic activity of purified DPPIV, fluorescent cleavage of Ala-ProAFC. It is filed as biochemical. The conditions noted are these: varying concentrations.

Sequences of proteins named here, by UniProt entry; tags and fusion partners are left off.
UniProt P27487, whole entry, species assumed: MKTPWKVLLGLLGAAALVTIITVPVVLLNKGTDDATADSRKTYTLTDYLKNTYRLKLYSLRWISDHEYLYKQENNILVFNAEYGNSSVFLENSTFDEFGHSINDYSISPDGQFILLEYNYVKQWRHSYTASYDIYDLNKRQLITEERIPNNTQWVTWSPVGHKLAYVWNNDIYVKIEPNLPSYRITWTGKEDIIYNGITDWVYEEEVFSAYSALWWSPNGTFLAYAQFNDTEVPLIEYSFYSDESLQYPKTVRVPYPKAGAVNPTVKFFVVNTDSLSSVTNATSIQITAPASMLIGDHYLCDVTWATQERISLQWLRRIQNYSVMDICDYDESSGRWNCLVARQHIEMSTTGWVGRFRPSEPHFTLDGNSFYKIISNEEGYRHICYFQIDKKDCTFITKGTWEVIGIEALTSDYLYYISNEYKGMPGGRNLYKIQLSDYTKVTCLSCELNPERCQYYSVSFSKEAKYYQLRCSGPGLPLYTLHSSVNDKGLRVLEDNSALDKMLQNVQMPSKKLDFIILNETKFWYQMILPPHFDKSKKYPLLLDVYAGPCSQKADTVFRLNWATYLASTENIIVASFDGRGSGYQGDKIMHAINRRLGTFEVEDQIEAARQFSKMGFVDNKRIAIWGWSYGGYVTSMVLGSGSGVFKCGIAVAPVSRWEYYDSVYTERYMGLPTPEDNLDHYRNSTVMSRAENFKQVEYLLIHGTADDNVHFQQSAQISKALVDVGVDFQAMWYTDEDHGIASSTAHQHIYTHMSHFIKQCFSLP

The structures appear in SMILES notation.

With `CC(C)[C@H](N)C(=O)N1CCC[C@H]1B(O)O` [Val-boroPro], the “inhibition of enzymatic activity (AFC release from Ala-ProAFC)” value is listed as “inhibited”.

(Values after US6692753B2, “Potentiation of the immune response” (priority 1997, dated 2004).)
